Results as given in US20210163896A1, “METHOD FOR PRODUCING ANIMAL CELL CONTAINING DNA OF INTEREST USING MICRONUCLEATE CELL FUSION METHOD” (NATIONAL UNIVERSITY CORPORATION TOTTORI UNIVERSITY, priority 2018, published 2021).

Columns and labels:
[1] = system: foreign Chromosome X-comprising HT1080 HPRT deficient cell line
[2] = system: HT1080 HPRT defective cell line
[3] = system: HT1080 wild type cell line

SMILES: Nc1nc2nc[nH]c2c(=S)[nH]1 [6-thioguanine]
- cytotoxicity with 6-thioguanine [1]: cytotoxicity with 6-thioguanine was observed
- cytotoxicity with 6-thioguanine [2]: insensitive
- cytotoxicity with 6-thioguanine [3]: underwent cytotoxicity
